Earlier results on one compound are cited in patent US7816398B2, “Fatty alcohol drug conjugates” (Luitpold Pharmaceuticals, Inc., priority 2001, dated 2010).

Each structure is given as a SMILES string. Read-outs that look alike come from different tables or passages of the source.

For the compound `CC(=O)O[C@H]1C(=O)[C@@]2(C)[C@H]([C@H](OC(=O)c3ccccc3)[C@]3(O)C[C@H](OC(=O)[C@H](O)[C@@H](NC(=O)c4ccccc4)c4ccccc4)C(C)=C1C3(C)C)[C@]1(OC(C)=O)CO[C@@H]1C[C@@H]2O` [paclitaxel], the MTD is, setting by setting: (in vivo) 225 mg/m^2; (infusion in humans) 225 mg/m^2.
